Tested on: EGFR
Assay: P-EGFR and EGFR quantification in CL97 xenograft tumors
Conditions: control = 1.00

## COc1cc2ncnc(Nc3ccc(F)c(Cl)c3)c2cc1OCCCN1CCOCC1 [Gefitinib]
  EGFR: 1.74 fold change
  P-EGFR (Y1068): 1.70 fold change
  p-EGFR/EGFR: 0.98 fold change
